## scFv variants of Ab-14 (heavy chain) against a SARS-CoV-2 spike peptide

Reference: Engelhart et al. 2022, doi:10.1038/s41597-022-01779-4. File: FLAb, binding data.

Binding partner: SARS-CoV-2 spike HR2 peptide, sequence PDVDLGDISGINAS.

Parent scFv Ab-14: VH joined to VL by three GGGGS repeats. Changes lie in the heavy chain CDRs alone.
VH: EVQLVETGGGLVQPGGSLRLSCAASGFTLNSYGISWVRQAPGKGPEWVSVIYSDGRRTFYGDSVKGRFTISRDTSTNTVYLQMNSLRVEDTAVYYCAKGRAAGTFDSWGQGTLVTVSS
VL: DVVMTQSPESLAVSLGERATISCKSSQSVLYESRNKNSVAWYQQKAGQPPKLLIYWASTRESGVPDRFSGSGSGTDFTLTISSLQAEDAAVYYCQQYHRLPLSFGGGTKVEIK

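The parent was found by panning a naive human phage display library on the peptide. Library AAYL49 holds single substitutions and randomly drawn double and triple substitutions in the CDRs. In AlphaSeq, yeast of one mating type display the scFv and yeast of the other type display the target. The frequency of each diploid, read from paired DNA barcodes, reflects how well the two displayed proteins bind. Read counts were normalised to the haploid input and turned into Kd by a linear fit to BCL2-family pairs of known affinity, for each replicate. Each pool was mated in three replicate cultures.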

Substitutions are numbered in sequence along the VH above, starting at 1 (not Kabat).
Affinities are written as log10 Kd with Kd in nM; a lower number is a better binder.
An entry "ND" has no value in the source: the pair was not observed among the diploids in that replicate. This suggests poor binding but is not conclusive.
Nonspecific signal, from three strains lacking the peptide, appeared in 15% of pairings of library AAYL49, centred on 4.06 (5% of these signals below 2.83); values are not corrected for it. The control count says in how many pairings with the empty strains this scFv gave a signal, with their mean in brackets.
In this assay the parent's reference entry averaged 0.65; its copy inside this library read 4.11 (one replicate of three).

| # | changes | replicates, log10 nM | empty controls |
|---|---|---|---|
| 1 | V50M S63I | ND / 4.28 / ND | 3/9 (3.74) |
| 2 | L29V G55V F59C | 4.15 / ND / ND | 0/9 |
| 3 | I51L V64N G103A | 3.86 / ND / ND | 0/9 |
| 4 | G61D S107F | 2.10 / 2.03 / 2.66 | 1/9 (4.34) |
| 5 | N30S S31C G33M | 5.49 / 4.71 / ND | 2/9 (3.47) |
| 6 | D54T S63L T104R | ND / ND / ND | 3/9 (4.22) |
| 7 | G26Y N30M F105I | ND / 4.44 / ND | 2/9 (3.91) |
| 8 | F27W S53A D106N | 2.31 / 2.30 / 2.27 | 5/9 (4.10) |
| 9 | T28Y S31P R57E | 4.62 / ND / ND | 0/9 |
| 10 | G26W S35Y Y52Q | ND / ND / ND | 1/9 (4.29) |
| 11 | T28L T58G A101V | ND / 2.65 / ND | 0/9 |
| 12 | G26A I34N S35N | ND / ND / ND | 0/9 |
| 13 | I34H I51W S53P | ND / 5.62 / 3.77 | 7/9 (4.80) |
| 14 | T28C S53E F105Y | ND / ND / 3.37 | 2/9 (3.77) |
| 15 | Y32S R57A Y60T | ND / ND / ND | 5/9 (4.26) |
| 16 | S31W Y32S G33V | ND / ND / 3.97 | 3/9 (4.19) |
| 17 | V50I G103I D106R | 4.14 / 5.73 / ND | 6/9 (4.69) |
| 18 | S31E T58P R100L | 5.57 / 3.69 / 5.13 | 8/9 (4.53) |
| 19 | V64E K65S R100P | ND / 4.59 / ND | 1/9 (4.17) |
| 20 | I34A Y60S | 3.44 / ND / ND | 2/9 (3.24) |
| 21 | G26P S35V V64W | ND / ND / ND | 0/9 |
| 22 | F27K F59P Y60M | ND / 4.10 / ND | 3/9 (3.95) |
| 23 | Y32W F59A F105K | 3.90 / ND / ND | 1/9 (4.08) |
| 24 | L29V N30H F59L | ND / ND / ND | 0/9 |
| 25 | S107N | 1.33 / 1.78 / 2.03 | 0/9 |
| 26 | D54H R57W A102I | ND / ND / ND | 0/9 |
| 27 | V50I S53W R56P | 5.10 / 4.17 / ND | 4/9 (4.00) |
| 28 | T28S I34H R56T | 2.85 / ND / ND | 1/9 (2.96) |
| 29 | Y32T T58V F105C | ND / 2.86 / 3.50 | 3/9 (4.15) |
| 30 | S53A T104N | 0.20 / 0.42 / 0.28 | 3/9 (4.79) |
| 31 | L29E Y60C S63C | 5.15 / 3.81 / 5.35 | 6/9 (4.80) |
| 32 | T28V R57L S63T | ND / ND / ND | 0/9 |
| 33 | G33R D62V D106K | ND / ND / ND | 4/9 (4.29) |
| 34 | N30W V50F Y60R | ND / 3.34 / ND | 0/9 |
| 35 | L29M S63E D106C | 3.08 / ND / ND | 0/9 |